The nature of the data set: Dissolution profile tests. In kind it is physicochemical.

In the case of thiamine mononitrate, the “% dissolved” value by setting is: (t 0 min) 0.00%; (t 5 min) 91.75%; (t 10 min) 95.88%; (t 15 min) 97.08%; (t 30 min) 97.56%; (t 45 min) 97.84%. The “% dissolved” value (t 60 min) is 98.54%.

For the origin of these results see patent US12653798B2, “Fixed combination medicine for the control and management of neuropathic pain” (LABORATORIOS SILANES S.A. DE C.V., priority 2020, dated 2026).
